Results published in patent US6630496B1, “Inhibitors of phospholipase enzymes” (Genetics Institute LLC, priority 1996, dated 2003).

Sequences of proteins named here, by UniProt entry; tags and fusion partners are left off.
UniProt P47712, whole entry: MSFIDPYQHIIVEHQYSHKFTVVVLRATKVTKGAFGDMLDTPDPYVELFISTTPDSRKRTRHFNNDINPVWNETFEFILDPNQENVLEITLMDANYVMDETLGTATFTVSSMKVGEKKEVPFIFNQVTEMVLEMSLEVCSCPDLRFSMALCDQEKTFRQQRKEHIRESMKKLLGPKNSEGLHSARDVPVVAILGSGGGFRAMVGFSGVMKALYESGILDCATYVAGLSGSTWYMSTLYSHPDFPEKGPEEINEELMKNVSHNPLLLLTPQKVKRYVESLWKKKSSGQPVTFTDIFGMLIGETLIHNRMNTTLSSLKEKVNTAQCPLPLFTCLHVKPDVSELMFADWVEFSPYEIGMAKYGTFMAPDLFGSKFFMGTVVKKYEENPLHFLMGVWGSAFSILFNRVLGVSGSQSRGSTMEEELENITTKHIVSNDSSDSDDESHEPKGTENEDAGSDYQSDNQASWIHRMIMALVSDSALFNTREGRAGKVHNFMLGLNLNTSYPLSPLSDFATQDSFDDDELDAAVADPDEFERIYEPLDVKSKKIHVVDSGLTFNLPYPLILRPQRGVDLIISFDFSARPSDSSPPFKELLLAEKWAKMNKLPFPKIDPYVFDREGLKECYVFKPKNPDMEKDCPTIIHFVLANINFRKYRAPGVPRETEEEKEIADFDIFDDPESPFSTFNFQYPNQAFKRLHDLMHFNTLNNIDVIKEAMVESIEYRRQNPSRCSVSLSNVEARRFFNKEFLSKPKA

Experiments:
[1] = target: T1, cPLA2 (Homo sapiens, UniProt P47712); experiment: Soluble substrate assay (LysoPC); details: read-out: IC50 (μM) Lyso PC; NA = inhibitory activity not detected
Description: (§1) Tables I-VI also report data for the listed compounds in the “LysoPC” assay and the Coumarine assay (see Example 88 below). In the data columns of the tables, assay results are reported as an “IC50” value, which is the concentration of a compound which inhibits 50% of the activity of the phospholipase enzyme in such assay. Where no numerical IC50 value appears, “NA” denotes that inhibitory activity was not detected from such compound in the corresponding assay and a blank box denotes that the compound was not tested in such assay as of the time of filing of the present application.
(b) Soluble Substrate Assay (LysoPC)
1-[^14C]-palmitoyl-2-hydroxyphosphotidyl-choline (57 mCi/mmol) (final concentration 4.4 μM) was dried under a stream of nitrogen. The lipid was resuspended by vortexing 80 mM Hepes pH 7.5, 1 mM EDTA (1.2×final concentration). A typical assay consisted of lipid suspension (85 μl) to which was added consecutively the inhibitor (5 μl in DMSO) and cPLA2, 200 ng in 80 mM Hepes pH 7.5, 2 mM DTT and […]. This assay was conducted by either the manual assay or automated assay protocol described below.

[2] = target: T1, cPLA2; experiment: Coumarine assay (7-hydroxycoumarinyl 6-heptenoate hydrolysis); details: read-out: IC50 (μM) Coumarine; 60 μM 7-hydroxycoumarinyl 6-heptenoate
Description: as §1
7-hydroxycoumarinyl 6-heptenoate was used as a monomeric substrate for cPLA2 as reported previously (Huang, Z. et al., 1994, Analytical Biochemistry 222, 110-115). Inhibitors were mixed with 200 μL assay buffer (80 mM Hepes, pH 7.5, 1 mM EDTA) containing 60 μM 7-hydroxycoumarinyl 6-heptenoate. The reaction was initiated by adding 4 μg cPLA2 in 50 μL assay buffer. Hydrolysis of the 7-hydroxycoumarinyl 6-heptenoate ester was monitored in a fluorometer by exciting at 360 nm and monitoring emission at 460 nm. Enzyme activity is proportional to the increasein emission at 460 nm per minute. In the presence of a cPLA2 inhibitor, the rate of increase is less.

For `COc1ccc(C(=O)O)cc1NC(=O)CSCC1Cc2cc(OCc3ccccc3)ccc2N1C(=O)c1ccc2ccccc2c1` (centres unmarked), the IC50 [1] was 12.1 µM and the IC50 [2] was > 20 µM.
